Experimental data taken from ChEMBL document CHEMBL5247645, “Modified Akuamma Alkaloids with Increased Potency at the Mu-opioid Receptor” (2023).

The chains behind the UniProt entries cited, without tags or fusion partners.
UniProt P35372, whole entry, looked up: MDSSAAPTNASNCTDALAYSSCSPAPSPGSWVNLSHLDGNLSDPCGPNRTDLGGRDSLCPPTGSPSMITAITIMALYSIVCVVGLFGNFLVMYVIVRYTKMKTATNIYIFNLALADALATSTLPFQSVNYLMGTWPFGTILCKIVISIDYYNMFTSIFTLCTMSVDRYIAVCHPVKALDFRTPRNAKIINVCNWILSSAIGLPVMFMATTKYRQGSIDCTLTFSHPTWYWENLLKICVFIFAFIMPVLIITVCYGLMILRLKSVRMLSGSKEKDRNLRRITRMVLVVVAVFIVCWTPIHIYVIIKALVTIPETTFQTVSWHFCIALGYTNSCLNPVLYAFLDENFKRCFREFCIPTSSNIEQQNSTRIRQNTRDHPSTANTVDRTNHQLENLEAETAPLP

How the values were obtained:
[1] = molecular target: Mu-type opioid receptor (Homo sapiens) (UniProt P35372); test: Displacement of [3H]DAMGO from mu opioid receptor (unknown origin) at 1 uM incubated for 180 mins by competitive radioligand binding assay (reference value: 1.3 %); conditions: filed as agonist
[2] = molecular target: Mu-type opioid receptor (Homo sapiens) (UniProt P35372); test: Displacement of [3H]DAMGO from mu opioid receptor (unknown origin) at 10 uM incubated for 180 mins by competitive radioligand binding assay (reference value: […])
[3] = test system: Mus musculus; test: Antinociceptive activity in C57BL/6 mouse assessed as latency of hind-paw response at 100 mg/kg, sc pretreated with naloxone for 15mins followed by compound addition and measured for 30 to 240 mins by hot plate assay; conditions: time lower 30.0 min, time upper […]
[4] = test system: Mus musculus; test: Effect on locomotor activity in C57BL/6 mouse assessed as impaired motor activity by observing latency to fall at 65 to 80 mg/kg, sc and measured after 15 mins by rotorod test; conditions: dose lower […], dose upper 80.0 mg/kg
[5] = test system: Mus musculus; test: Antinociceptive activity in C57BL/6 mouse assessed as latency of rapid tail-flick response at 100 mg/kg, sc pretreated with naloxone for 15mins followed by compound addition and measured for 30 to 240 mins by warm-water tail-flick assay; conditions: time lower 30.0 min, time upper […]

SMILES | Activity [1] | Activity ([2]; filed as agonist) | Activity [2] | other results
C/C=C1/CN2CC[C@@]34c5cc(I)ccc5N(C)[C@]35OC[C@@]4(C(=O)OC)[C@H]1C[C@H]25 | 98.7% | 67.2% | – | –
C/C=C1/CN2CC[C@@]34c5cc(O)c(-c6ccccc6)cc5N(C)[C@]35OC[C@@]4(C(=O)OC)[C@H]1C[C@H]25 | 70.4% | – | 14.2% | –
C/C=C1/CN2CC[C@@]34c5cc(-c6ccccc6)ccc5N(C)[C@]35OC[C@@]4(C(=O)OC)[C@H]1C[C@H]25 | 101% | 46.9% | – | –
C/C=C1/CN2CC[C@@]34c5cc(OC)ccc5N(C)[C@]35OC[C@@]4(C(=O)OC)[C@H]1C[C@H]25 | 90.5% | 64.6% | – | –
C/C=C1/CN2CC[C@@]34c5cc(O)c(-c6ccc(C#N)cc6)cc5N(C)[C@]35OC[C@@]4(C(=O)OC)[C@H]1C[C@H]25 | 68.1% | – | 12.3% | –
C/C=C1/CN2CC[C@@]34c5cc(-c6ccc(OC)cc6)ccc5N(C)[C@]35OC[C@@]4(C(=O)OC)[C@H]1C[C@H]25 | 100% | 89.9% | – | –
C/C=C1/CN2CC[C@@]34c5cc(O)c(-c6ccoc6)cc5N(C)[C@]35OC[C@@]4(C(=O)OC)[C@H]1C[C@H]25 | 76.1% | – | 16.1% | –
C/C=C1/CN2CC[C@@]34c5cc(OC(C)=O)ccc5N(C)[C@]35OC[C@@]4(C(=O)OC)[C@H]1C[C@H]25 | 93.9% | 54.1% | – | –
C/C=C1/CN2CC[C@@]34c5cc(-c6ccc(C)cc6)ccc5N(C)[C@]35OC[C@@]4(C(=O)OC)[C@H]1C[C@H]25 | 103% | 71.1% | – | –
C/C=C1/CN2CC[C@@]34c5ccccc5N(C)[C@]35OC[C@@]4(CO)[C@H]1C[C@H]25 | 98.4% | 75.2% | – | –
C/C=C1/CN2CC[C@@]34c5cc(-c6ccc(C#N)cc6)ccc5N(C)[C@]35OC[C@@]4(C(=O)OC)[C@H]1C[C@H]25 | 98.6% | 63.5% | – | –
C/C=C1/CN2CC[C@@]34c5cc(O)c(-c6ccc(C)cc6)cc5N(C)[C@]35OC[C@@]4(C(=O)OC)[C@H]1C[C@H]25 | 63.8% | – | 9.7% | –
C/C=C1/CN2CC[C@@]34c5cc(O)c(-c6ccc(OC)cc6)cc5N(C)[C@]35OC[C@@]4(C(=O)OC)[C@H]1C[C@H]25 | 81.4% | – | 20.4% | –
C/C=C1/CN2CC[C@@]34c5cc(C#N)ccc5N(C)[C@]35OC[C@@]4(C(=O)OC)[C@H]1C[C@H]25 | 99.1% | 96.5% | – | –
C/C=C1/CN2CC[C@@]34c5cc(-c6ccoc6)ccc5N(C)[C@]35OC[C@@]4(C(=O)OC)[C@H]1C[C@H]25 | 97.6% | – | 36.9% | –
C/C=C1/CN2CC[C@@]34c5cc(Br)ccc5N(C)[C@]35OC[C@@]4(C(=O)OC)[C@H]1C[C@H]25 | 84.8% | 51.6% | – | –
C/C=C1/CN2CC[C@]34C(=Nc5ccccc53)[C@@H]2C[C@@H]1[C@@]4(CO)C(=O)OC | 85% | 67.8% | – | –
C/C=C1/CN2CC[C@@]34c5cc(O)c(-c6ccc(F)cc6)cc5N(C)[C@]35OC[C@@]4(C(=O)OC)[C@H]1C[C@H]25 | 63.4% | – | 10.7% | –
C/C=C1/CN2CC[C@@]34c5cc(-c6ccc(F)cc6)ccc5N(C)[C@]35OC[C@@]4(C(=O)OC)[C@H]1C[C@H]25 | 99% | 53.9% | – | –
C/C=C1\CN2CC[C@@]34c5ccccc5N(CCc5ccccc5)[C@]35OC[C@@]4(C(=O)OC)[C@H]1C[C@H]25 | – | – | – | Activity [3]: inactive; Activity [4]: Active; Activity [5]: inactive

Activity calls are given as the source filed them. No cut-off for these calls is given here.
